Here are results for 24 compounds from PubChem BioAssay AID2540 (Sanford-Burnham Center for Chemical Genomics, 2010).

Chains of the proteins cited; added tags and fusions are not shown.
UniProt Q96LD8, whole entry: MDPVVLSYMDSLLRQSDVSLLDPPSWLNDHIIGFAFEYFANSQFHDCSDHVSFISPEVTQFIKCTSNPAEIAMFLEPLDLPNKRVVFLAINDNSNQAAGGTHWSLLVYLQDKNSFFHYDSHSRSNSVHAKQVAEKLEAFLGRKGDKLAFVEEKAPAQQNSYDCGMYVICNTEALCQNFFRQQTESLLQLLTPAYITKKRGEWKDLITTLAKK

The entries are a selection whose mix differs from that of the whole data set. Some results for these compounds are left out of this collection, so the calls shown say nothing about other tests. Active and inactive are the calls of the source. No stated cut-off is given here; in the data, active means inhibition above about 50%; inactive means the rest.

This assay addresses Sentrin-specific protease 8 (Homo sapiens) (UniProt Q96LD8). As to the kind of experiment: SENP8 protease inhibitors, primary screen, biochemical, luminescence (AID 2540). To be noted: purified SENP8, Z-RLRGG-aminoluciferin cleavage, at 10 µM, active compounds read high.
As to `CN(C)C1CCCC1OC(=O)C(O)(c1ccccc1)c1ccccc1` (centres undefined), the inhibition was inactive: -6.25%.

Turning to `CN(C)c1ccc(C(=O)NCC2(N(C)C)CCCCC2)cc1`, the inhibition was inactive: 1.19%.

As to `Cc1ccccc1C(=O)NCC1(N2CCCCC2)CCCCC1`, the inhibition is inactive: -2.15%.

Take `O=C(NCC1(N2CCCCC2)CCCCC1)c1cccc(Br)c1`: the inhibition was inactive: -3.76%.

As for `Cc1cc(C(=O)NCC2(N3CCCCC3)CCCCC2)ccc1[N+](=O)[O-]`, the inhibition was inactive: -4.46%.

With `CCN1CCCC(OC(=O)C2(O)c3ccccc3C=Cc3ccccc32)C1` (centres undefined), the inhibition was inactive: -4.81%.

Consider `COc1ccc(C(=O)NCC2(N(C)C)CCCCC2)cc1`, for which the inhibition is inactive: 6.82%.

Turning to `O=C(NCC1(N2CCCCC2)CCCCC1)c1cc(F)c(F)cc1Cl`, the inhibition was inactive: -0.964%.

For the compound `C=CCN1CCN(CCOC(=O)C(O)(c2ccccc2)c2ccccc2)CC1`, the inhibition was inactive: -9.81%.

As for `CN1[C@@H]2CC[C@H]1CC(OC(=O)C(O)(c1ccccc1)c1ccccc1)C2` (some centres undefined), the inhibition was inactive: 11.5%.

With `O=C(NCC1(N2CCCCC2)CCCCC1)c1cc([N+](=O)[O-])ccc1Cl`, the inhibition was inactive: -0.09%.

Regarding `Cc1ccc(C(=O)NCC2(N3CCCCC3)CCCCC2)cc1`, the inhibition was inactive: 4.93%.

In the case of `CC(C)N1C(=O)CC2(CCN(CCOC(=O)C(O)(c3ccccc3)c3ccccc3)CC2)C1=O`, the inhibition was inactive: -0.085%.

As for `COc1cc(SC)ccc1C(=O)NCC1(N(C)C)CCCCC1`, the inhibition is inactive: 3.54%.

For the compound `CCN(CC)CC(C)C(C)OC(=O)C(O)(c1ccccc1)c1ccccc1` (centres undefined), the inhibition was inactive: 5.42%.

As to `O=C(OC1CN2CCC1CC2)C(CO)(c1ccccc1)c1ccccc1` (centres undefined), the inhibition is inactive: 0.572%.

In the case of `CN(C)c1cccc(C(=O)NCC2(N(C)C)CCCCC2)c1`, the inhibition is inactive: 3.41%.

For the compound `CC(C)Oc1ccc(C(=O)NCC2(N(C)C)CCCCC2)cc1`, the inhibition is inactive: -0.453%.

Consider `COc1ccc(Br)c(C(=O)NCC2(N3CCCCC3)CCCCC2)c1`, for which the inhibition is inactive: -4.43%.

As for `COc1cc(C(=O)NCC2(N(C)C)CCCCC2)c([N+](=O)[O-])cc1OC`, the inhibition was inactive: -6.06%.

Take `CN(C)C1(CNC(=O)c2ccc(Br)cc2)CCCCC1`: the inhibition was inactive: 0.886%.

In the case of `O=C(NCC1(N2CCCCC2)CCCCC1)c1cccc(Cl)c1`, the inhibition was inactive: -2.04%.

`COc1ccc(Cl)cc1C(=O)NCC1(N(C)C)CCCCC1`: the inhibition is inactive: -5.9%.

Consider `COc1cccc(C(=O)NCC2(N3CCCCC3)CCCCC2)c1`, for which the inhibition is inactive: -1.22%.

As a reminder, the inhibition is the relative decrease from the control value, in per cent.
